Measured values taken from PMC9981206 (Cancer Research Communications, 2022).

The chains behind the UniProt entries cited, without tags or fusion partners.
UniProt P09874, whole entry: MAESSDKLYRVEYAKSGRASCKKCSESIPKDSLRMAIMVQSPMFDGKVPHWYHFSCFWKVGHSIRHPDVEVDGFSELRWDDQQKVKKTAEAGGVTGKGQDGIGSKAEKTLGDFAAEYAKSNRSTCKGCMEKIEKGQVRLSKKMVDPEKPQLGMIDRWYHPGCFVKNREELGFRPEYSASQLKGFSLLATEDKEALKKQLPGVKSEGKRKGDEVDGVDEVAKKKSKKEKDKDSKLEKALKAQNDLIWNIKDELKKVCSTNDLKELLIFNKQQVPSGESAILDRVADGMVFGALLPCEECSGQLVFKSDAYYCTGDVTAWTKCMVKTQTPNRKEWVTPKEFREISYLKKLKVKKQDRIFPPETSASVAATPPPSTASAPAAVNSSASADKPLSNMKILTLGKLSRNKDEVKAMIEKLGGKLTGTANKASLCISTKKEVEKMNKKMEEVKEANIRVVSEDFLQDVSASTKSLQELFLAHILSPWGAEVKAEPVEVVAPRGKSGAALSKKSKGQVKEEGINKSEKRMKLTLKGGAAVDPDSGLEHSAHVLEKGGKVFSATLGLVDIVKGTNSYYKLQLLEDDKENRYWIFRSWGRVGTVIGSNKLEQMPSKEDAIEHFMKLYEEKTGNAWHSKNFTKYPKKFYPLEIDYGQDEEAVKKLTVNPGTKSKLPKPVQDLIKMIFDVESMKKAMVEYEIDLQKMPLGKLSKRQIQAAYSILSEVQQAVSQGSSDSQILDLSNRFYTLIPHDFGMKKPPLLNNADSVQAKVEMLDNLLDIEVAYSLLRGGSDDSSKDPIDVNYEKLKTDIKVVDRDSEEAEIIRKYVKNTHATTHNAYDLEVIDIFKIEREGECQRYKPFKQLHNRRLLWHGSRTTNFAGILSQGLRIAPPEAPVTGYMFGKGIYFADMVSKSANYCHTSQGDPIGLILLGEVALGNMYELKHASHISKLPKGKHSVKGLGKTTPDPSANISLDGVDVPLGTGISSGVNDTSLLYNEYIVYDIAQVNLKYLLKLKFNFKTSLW

Legend:
[1] = tested on: NCI-60 tumor cell line panel; assay: NCI-60 human cancer cell line proliferation/viability screen; type: cell-based; conditions: 10 nmol/L, 48 hours
TNKS1 = molecular target: T1, TNKS1 (Homo sapiens, UniProt O95271); assay: TNKS1 biochemical assay; conditions: mean ± SD
T1 sequence (O95271 1-1327): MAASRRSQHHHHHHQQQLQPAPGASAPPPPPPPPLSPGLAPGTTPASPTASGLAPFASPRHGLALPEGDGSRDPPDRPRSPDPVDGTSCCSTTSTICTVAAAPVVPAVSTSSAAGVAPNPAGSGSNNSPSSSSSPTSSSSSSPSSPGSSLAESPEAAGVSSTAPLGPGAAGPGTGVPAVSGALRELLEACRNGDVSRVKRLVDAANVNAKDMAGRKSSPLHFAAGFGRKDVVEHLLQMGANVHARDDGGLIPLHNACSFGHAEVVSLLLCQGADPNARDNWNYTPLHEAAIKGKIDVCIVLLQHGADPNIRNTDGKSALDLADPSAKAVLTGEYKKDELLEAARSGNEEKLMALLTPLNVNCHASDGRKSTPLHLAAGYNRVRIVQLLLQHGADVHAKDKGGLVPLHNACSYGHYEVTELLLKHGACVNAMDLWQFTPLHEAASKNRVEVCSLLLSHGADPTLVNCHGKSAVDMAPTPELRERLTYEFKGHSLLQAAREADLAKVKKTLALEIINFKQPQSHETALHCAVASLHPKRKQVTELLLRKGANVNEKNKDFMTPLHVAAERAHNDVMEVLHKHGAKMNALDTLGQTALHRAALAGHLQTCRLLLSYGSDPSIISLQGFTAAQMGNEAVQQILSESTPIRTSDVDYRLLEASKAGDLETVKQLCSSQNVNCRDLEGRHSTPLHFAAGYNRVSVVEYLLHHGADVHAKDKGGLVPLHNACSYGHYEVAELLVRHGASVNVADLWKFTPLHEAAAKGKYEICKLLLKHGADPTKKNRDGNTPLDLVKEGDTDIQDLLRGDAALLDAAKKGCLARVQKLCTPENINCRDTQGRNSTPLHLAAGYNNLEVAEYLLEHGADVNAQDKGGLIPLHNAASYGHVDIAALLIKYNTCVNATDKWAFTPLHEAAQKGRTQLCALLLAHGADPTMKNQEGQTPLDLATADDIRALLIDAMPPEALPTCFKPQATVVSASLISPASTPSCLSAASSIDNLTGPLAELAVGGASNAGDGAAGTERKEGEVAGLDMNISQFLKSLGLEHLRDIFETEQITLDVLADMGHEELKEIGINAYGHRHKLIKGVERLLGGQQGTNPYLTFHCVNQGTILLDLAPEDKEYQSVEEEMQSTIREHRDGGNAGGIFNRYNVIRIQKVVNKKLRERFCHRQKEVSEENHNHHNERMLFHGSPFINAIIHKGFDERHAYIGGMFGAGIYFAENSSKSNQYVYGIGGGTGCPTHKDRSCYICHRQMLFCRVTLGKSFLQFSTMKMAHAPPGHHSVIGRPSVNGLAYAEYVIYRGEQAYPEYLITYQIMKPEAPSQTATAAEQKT

TNKS2 = molecular target: T2, TNKS2 (Homo sapiens, UniProt Q9H2K2); assay: TNKS2 biochemical assay; conditions: mean ± SD
T2 sequence (Q9H2K2 1-1166): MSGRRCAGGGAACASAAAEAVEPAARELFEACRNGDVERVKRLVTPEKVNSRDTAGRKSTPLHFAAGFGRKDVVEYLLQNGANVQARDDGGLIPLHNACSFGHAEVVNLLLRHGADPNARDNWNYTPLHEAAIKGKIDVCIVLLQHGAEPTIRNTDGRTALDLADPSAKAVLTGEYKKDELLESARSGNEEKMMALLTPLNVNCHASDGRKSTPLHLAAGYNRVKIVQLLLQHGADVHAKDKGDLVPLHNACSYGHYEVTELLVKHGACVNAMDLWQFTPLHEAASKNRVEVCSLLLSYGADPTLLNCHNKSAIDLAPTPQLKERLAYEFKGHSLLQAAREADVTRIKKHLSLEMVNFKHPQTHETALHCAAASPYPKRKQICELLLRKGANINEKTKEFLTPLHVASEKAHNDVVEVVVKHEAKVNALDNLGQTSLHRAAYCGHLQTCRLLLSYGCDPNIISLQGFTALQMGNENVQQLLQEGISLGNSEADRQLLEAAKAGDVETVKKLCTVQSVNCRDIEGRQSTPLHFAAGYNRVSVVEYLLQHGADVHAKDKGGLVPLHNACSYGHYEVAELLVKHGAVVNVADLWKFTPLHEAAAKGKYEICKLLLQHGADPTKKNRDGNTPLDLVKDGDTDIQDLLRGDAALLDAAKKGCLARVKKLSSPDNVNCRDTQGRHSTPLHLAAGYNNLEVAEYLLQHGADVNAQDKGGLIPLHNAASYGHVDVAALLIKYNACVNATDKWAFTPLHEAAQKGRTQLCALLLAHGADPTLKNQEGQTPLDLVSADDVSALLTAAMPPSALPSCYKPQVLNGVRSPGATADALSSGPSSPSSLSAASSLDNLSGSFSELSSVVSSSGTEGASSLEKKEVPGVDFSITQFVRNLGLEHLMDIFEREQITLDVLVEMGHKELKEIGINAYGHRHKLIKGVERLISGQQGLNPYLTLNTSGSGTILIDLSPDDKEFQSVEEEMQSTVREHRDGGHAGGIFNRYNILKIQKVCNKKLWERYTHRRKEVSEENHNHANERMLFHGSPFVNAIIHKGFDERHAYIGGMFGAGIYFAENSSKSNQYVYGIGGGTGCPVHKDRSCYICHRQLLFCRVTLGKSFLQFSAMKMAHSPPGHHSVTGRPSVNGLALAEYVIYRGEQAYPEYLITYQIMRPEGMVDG

PARP1 = PARP1 (Homo sapiens, UniProt P09874); assay: PARP1 biochemical assay

Structure (SMILES) | number of the 60 tested cancer cell lines showing >25% relative growth inhibition [1] | IC50 (TNKS1) [µM] | IC50 (TNKS2) [µM] | IC50 (PARP1) [µM]
CCOc1ccc(-c2nnc([C@H]3C[C@H](NC(=O)c4cccc5nccnc45)C3)n2-c2ccccc2F)nc1 [OM-153] | 16 | – | – | –
Cc1cc(N2C[C@@H](C)N[C@@H](C)C2)ncc1-c1ccc(-c2nc3c(ccn3C)c(=O)[nH]2)cc1 [AZ6102] | – | 0.012 ± 0.0012 | 0.0025 ± 0.0003 | 1.5
